The source made the active and inactive calls. The rule behind the calls is not given here.

The target of the experiment is T1, Sterol regulatory element-binding protein cleavage-activating protein (Homo sapiens) (UniProt Q12770).
T1 sequence (whole entry): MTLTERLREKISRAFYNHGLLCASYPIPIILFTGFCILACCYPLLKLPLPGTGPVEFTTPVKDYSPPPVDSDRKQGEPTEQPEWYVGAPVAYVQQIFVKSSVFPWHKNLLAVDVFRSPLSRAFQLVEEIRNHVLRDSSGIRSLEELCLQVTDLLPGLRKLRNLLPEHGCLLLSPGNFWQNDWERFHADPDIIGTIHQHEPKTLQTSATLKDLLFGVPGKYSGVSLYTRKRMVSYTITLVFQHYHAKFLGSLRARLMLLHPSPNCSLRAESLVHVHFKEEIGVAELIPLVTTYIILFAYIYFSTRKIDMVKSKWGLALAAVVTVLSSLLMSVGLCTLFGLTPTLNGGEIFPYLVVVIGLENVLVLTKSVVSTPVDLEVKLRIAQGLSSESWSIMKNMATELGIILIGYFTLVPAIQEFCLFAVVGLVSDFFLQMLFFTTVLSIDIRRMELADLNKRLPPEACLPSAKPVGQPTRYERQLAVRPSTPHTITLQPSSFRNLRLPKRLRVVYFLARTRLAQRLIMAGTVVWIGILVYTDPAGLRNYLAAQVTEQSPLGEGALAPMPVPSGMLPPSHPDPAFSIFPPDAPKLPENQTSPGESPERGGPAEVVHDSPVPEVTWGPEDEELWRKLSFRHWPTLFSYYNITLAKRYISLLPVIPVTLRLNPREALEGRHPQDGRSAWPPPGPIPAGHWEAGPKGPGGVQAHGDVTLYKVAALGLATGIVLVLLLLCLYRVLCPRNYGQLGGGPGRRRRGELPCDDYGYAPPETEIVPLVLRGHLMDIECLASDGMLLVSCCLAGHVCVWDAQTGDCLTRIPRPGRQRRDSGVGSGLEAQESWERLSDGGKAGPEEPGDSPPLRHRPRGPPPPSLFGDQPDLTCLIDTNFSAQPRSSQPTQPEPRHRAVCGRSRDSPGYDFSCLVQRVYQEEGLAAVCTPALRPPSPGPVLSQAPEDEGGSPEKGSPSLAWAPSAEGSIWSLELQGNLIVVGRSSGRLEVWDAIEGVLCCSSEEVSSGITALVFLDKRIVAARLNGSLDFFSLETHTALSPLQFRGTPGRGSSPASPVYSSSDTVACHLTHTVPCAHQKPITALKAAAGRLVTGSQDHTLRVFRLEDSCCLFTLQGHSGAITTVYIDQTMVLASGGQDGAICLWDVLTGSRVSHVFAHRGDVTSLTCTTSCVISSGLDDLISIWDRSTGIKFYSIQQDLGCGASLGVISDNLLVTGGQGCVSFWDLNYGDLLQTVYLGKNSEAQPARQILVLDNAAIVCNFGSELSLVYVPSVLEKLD
Description: Inhibition of FLAG-tagged SCAP (unknown origin) expressed in CHO-K1 cells assessed as reduction in SCAP protein level at 5 uM after 24 hrs by Western blotting analysis. In kind it is cell-based. In general terms: A western blot detects proteins with antibodies after separation by electrophoresis.

Consider `C[C@H](CCC(F)(F)C(C)(C)O)[C@H]1CC[C@H]2/C(=C/Cn3nnnc3-c3ccccc3)CCC[C@]12C`, for which the inhibition result is “Active”.

Values taken from ChEMBL document CHEMBL4823262, “Discovery of a Vitamin D Receptor-Silent Vitamin D Derivative That Impairs Sterol Regulatory Element-Binding Protein In Vivo” (J Med Chem, 2021).
